The record followed here is ChEMBL document CHEMBL1955798, “Novel coumarins and 2-thioxo-coumarins as inhibitors of the tumor-associated carbonic anhydrases IX and XII” (Bioorg Med Chem, 2012).

Assay [1] addresses Carbonic anhydrase 12 (Homo sapiens, UniProt O43570). Nature of the assay: Inhibition of human carbonic anhydrase 12 after 6 hrs by stop-flow CO2 hydration assay.
Assay [2] concerns the target Carbonic anhydrase 9 (Homo sapiens, UniProt Q16790). Nature of the assay: Inhibition of human carbonic anhydrase 9 after 6 hrs by stop-flow CO2 hydration assay.

For orientation: pKi means −log10 of the Ki, conventionally taken in molar units.

The structures appear in SMILES notation. pKi: −log10 of the molar value.

For the molecule `O=c1ccc2ccccc2o1` [COUMARIN], the pKi in assay [1] and in assay [2] was under 3.70 throughout.
